The numbers were not newly measured in patent US20160281133A1, “STABILIZATION AND ISOLATION OF EXTRACELLULAR NUCLEIC ACIDS” (QIAGEN GMBH, priority 2013, published 2016), which cites them from elsewhere.

The conditions of this data set: in DMSO (highest concentration listed in the cell); cited from earlier work.

Regarding `CC(C)C(NC(=O)c1ccc2ccccc2n1)C(=O)NC(CC(=O)O)C(=O)COc1c(F)cccc1F` (stereo not drawn) [Q-VD-OPh, Quinoline-Val-Asp-CH2-OPH], the solubility is given as 20 mM, add 97 μl DMSO 10 mM, add 194 μl DMSO 5 mM, add 388 μl DMSO.
